Measurements: patent publication US20230020663A1, “SULFONAMIDE INHIBITORS AS CTPS1 INHIBITORS” (Step Pharma S.A.S., priority 2019, published 2023)
Where two headings read alike, the source gives them in different places.

Biological target: human CTPS1 (Homo sapiens, UniProt P17812)
Test: Human CTPS1 enzyme inhibition (ADP-Glo Max assay)
Protocol: The enzyme inhibitory activities of compounds invented against the target of interest were determined using the ADP-Glo™ Max assay (Promega, UK). Assays for human CTPS1 were performed in 1× assay buffer containing 50 mM Tris, 10 mM MgCl2, 0.01% Tween-20, pH to 8.0 accordingly. Finally, immediately before use, L-cysteine was added to the 1× assay buffer to a final concentration of 2 mM. All reagents are from Sigma-Aldrich unless specified otherwise. Human full length active C-terminal FLAG-Hiss-tag CTPS1 (UniProtKB—P17812, CTPS[1-591]-[…]) was obtained from Proteros biostructures GmbH.
3× human CTPS1 protein was prepared in 1× assay buffer to the final working protein concentration required for the reaction. […] The enzymatic reaction was then initiated by addition of a 2 uL per well volume of a pre-mixed substrate mix (UltraPure ATP from ADP-Glo™ Max kit (0.31 mM), GTP (0.034 mM), UTP (0.48 mM) and L-glutamine (0.186 mM)) and the mixture was incubated for an appropriate amount of time within the determined linear phase of the reaction at 25° C. under sealed plate conditions with constant agitation at 500 revolutions per minute (rpm). ADP-Glo™ Max reagent was added for 60 minutes (6 μL per well) and subsequently ADP-Glo™ Max development reagent was added for 60 minutes (12 uL per well) prior to signal detection in a microplate reader (EnVision® Multilabel Reader, Perkin Elmer). […]

SMILES | IC50 (read-out: CTPS1 (Human CTPS1 Enzyme Inhibition data grouped by potency range), Table 23) [nM] | IC50 (read-out: CTPS1 (Human CTPS1 Enzyme Inhibition data grouped by potency range), Table 24) [nM]
CC(C)c1cncc(-c2ccc(NC(=O)C(C)(C)c3ccnc(NS(=O)(=O)C4CC4)n3)nc2)n1 | 100 to 1000 | 
CCOc1cnc(-c2ccc(NC(CC)c3ccnc(NS(=O)(=O)C4CC4)n3)cc2)cn1 (centres unmarked) |  | 100 to 1000
